This test has as its system HepG2. Description: Toxicity assay (MTS/MTT dye), HepG2 cells. Conditions: HepG2, three day-incubation (Table 1). As to the method:
After a three day-incubation for HepG2, or 5 days for human PBM cells, cell viability and mitochondrial activity were measured in a colorimetric assay using the MTS- or MTT dye method (Promega, Madison, Wis.).

With `NC(=O)c1ncn([C@@H]2O[C@H](CO)[C@@H](O)[C@H]2O)n1` [Ribavirin, 1-β-D-ribofuranosyl-1H-,1,2,4-triazole-3-carboxamide, reference compound], the “Cytotoxicity HepG2 IC30” value amounted to 90 µM.

(Values after patent US6949522B2, “β-2′- or 3′-halonucleosides” (Pharmasset, Inc., priority 2001, dated 2005).)
